How the values were obtained:
[1] = biological target: T1, human μ opioid receptor (Homo sapiens, UniProt P35372); format: binding; settings: read-out: [3H]DAMGO (μ)
T1 construct: expressed in transfected cells; host or cells: Chinese hamster ovary (CHO) cells

Protein sequences, listed by entry. Tags and fused reporters are not part of them. Lines headed by an entry give the natural chain unless they say otherwise; changes in a name come on top. Residues count along the entry.
UniProt P35372, whole entry: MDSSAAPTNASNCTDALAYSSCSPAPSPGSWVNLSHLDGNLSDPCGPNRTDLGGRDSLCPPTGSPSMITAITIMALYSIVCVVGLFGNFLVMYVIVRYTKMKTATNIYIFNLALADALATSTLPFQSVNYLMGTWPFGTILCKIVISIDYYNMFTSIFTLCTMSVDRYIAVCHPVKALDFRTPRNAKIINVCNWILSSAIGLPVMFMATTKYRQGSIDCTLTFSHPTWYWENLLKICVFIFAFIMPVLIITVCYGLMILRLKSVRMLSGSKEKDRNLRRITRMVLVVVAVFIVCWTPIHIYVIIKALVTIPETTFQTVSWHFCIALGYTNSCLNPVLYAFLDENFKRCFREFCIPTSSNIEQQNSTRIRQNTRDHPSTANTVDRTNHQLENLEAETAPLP
UniProt P41145: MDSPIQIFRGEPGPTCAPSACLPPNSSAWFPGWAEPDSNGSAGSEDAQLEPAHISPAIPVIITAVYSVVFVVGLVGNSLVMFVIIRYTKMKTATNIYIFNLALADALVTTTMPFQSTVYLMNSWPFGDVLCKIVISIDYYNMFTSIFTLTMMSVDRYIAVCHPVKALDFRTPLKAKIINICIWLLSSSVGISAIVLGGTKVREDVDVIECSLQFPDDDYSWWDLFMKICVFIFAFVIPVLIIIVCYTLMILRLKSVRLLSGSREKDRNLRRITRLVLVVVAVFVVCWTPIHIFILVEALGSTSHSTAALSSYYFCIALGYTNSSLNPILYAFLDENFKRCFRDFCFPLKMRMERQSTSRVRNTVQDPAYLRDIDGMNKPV
UniProt P41144: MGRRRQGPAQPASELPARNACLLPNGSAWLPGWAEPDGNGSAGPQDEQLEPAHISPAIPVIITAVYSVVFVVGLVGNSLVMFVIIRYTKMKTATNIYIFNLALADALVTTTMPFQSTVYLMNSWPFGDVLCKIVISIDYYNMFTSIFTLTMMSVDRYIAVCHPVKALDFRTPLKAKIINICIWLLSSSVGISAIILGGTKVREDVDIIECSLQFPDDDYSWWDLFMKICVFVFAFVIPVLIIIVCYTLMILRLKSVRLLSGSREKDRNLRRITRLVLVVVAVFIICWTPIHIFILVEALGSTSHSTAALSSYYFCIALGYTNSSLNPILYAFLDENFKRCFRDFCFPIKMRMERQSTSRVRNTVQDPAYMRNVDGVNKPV
UniProt A0A286XTF2, 1-366: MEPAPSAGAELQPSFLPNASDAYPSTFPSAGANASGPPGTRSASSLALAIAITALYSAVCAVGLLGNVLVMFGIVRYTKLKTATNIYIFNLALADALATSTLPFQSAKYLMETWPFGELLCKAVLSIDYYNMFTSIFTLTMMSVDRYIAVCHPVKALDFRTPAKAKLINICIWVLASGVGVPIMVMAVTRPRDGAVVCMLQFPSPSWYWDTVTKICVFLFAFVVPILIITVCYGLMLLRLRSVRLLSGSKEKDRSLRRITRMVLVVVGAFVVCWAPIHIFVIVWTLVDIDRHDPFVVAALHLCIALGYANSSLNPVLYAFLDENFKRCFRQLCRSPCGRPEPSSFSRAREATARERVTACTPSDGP

[2] = biological target: T2, human δ opioid receptor (Homo sapiens, UniProt P41143); assay: binding to cloned human receptor in CHO cell membranes, [3H]Naltrindole; settings: Table 5 standards; marked a: chinese hamster ovary
T2 construct: expressed in transfected cells; host or cells: Chinese hamster ovary (CHO) cells
Method: The affinities of the compounds of the invention were determined in guinea pig brain cells by the method described in Wentland et al. Biorgan. Med. Chem. Lett. 9. […] CHO cell membranes, expressing the human μ, δ, or κ opioid receptor, were incubated with 12 different concentrations of the compounds in the presence of receptor-specific radioligands at 25° C., in a final volume of 1 ml of 50 mM Tris-HCl, pH 7.5. Nonspecific binding was determined using 1 μM naloxone. Data are the mean value ±S.E.M. from three experiments, performed in triplicate.

[3] = biological target: T3, human κ opioid receptor (Homo sapiens, UniProt P41145); format: binding; settings: read-out: [3H]U69,593 (κ)
T3 construct: expressed in transfected cells; host or cells: Chinese hamster ovary (CHO) cells

[4] = biological target: T4, κ opioid receptor (Cavia porcellus, UniProt P41144); format: binding, guinea pig; settings: read-out: [3H]U69,593 (κ)
T4 construct: determined in guinea pig brain cells; from tissue; host or cells: guinea pig brain

[5] = biological target: T5, δ opioid receptor (Cavia porcellus, UniProt A0A286XTF2); format: binding, guinea pig; settings: read-out: [3H]Naltrindole (δ)
T5 construct: determined in guinea pig brain cells; from tissue; host or cells: guinea pig brain

Cyclazocine [(±)-Cyclazocine, reference compound]
Ki [1]: 160 ± 10 pM
Ki [2]: 2000 ± 220 pM
Ki [3]: 70 ± 10 pM
Ki [4]: 180 ± 20 pM
Ki [5]: 1100 ± 40 pM
